We go through one substance from US20240010694A1, “HYDROGELS CONTAINING AFFIBODIES AND USES THEREOF” (University of Oregon, priority 2022, published 2024).

In test [1] the target is T1, BMP receptor type II (BMPR-II) (Homo sapiens, UniProt Q13873).
T1 sequence (Q13873 27-1038): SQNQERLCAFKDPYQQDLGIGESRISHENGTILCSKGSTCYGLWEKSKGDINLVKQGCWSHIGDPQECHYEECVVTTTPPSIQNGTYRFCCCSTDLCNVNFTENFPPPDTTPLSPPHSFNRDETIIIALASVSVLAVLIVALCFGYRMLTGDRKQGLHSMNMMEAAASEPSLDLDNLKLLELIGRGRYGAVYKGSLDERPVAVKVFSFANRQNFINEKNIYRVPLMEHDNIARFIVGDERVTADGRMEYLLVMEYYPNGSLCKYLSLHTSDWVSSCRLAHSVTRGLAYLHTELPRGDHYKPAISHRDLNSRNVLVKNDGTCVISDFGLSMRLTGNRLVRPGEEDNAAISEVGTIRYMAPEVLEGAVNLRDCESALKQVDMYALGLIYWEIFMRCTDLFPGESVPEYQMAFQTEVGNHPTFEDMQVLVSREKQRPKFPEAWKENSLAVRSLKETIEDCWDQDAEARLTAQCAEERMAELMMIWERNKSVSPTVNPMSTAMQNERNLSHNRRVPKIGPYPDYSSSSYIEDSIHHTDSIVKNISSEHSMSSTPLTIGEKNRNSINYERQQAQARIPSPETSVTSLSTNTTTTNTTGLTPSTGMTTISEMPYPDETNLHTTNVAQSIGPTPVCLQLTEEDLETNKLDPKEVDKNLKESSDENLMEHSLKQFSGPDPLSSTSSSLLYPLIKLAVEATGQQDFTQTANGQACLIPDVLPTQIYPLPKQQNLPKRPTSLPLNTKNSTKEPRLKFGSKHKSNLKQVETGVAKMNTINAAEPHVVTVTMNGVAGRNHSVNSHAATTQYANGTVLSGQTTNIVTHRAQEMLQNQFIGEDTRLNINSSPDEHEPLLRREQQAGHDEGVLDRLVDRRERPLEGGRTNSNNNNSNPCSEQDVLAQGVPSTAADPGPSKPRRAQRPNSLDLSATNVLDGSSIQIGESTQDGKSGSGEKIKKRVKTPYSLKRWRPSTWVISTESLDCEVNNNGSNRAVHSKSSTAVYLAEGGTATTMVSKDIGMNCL
The note with it: read-out: KD, BMP-2 knuckle epitope with BMPR-II; cited from earlier work.

For test [2], the system named is C2C12 cells. Put plainly: C2C12 alkaline phosphatase activity assay. The class given is cell-based, murine. Conditions: 20 nM BMP-2 alone, 72 hours. The method, then: After 72 h, the cells were lysed with Cellytic M (Millipore Sigma), and their ALP activity was quantified and normalized to the total amount of double stranded DNA (dsDNA) present in each well.^88 For the ALP colorimetric assay, 50 μL buffer solution consisting of equal volumes of 1.5 M 2-amino-2methyl-1-propanol solution pH 10.25, 20 mM p-nitrophenyl phosphate solution, and 10 mM MgCl2 hexahydrate solution were mixed with 50 μL of lysed cells and incubated in the dark for 20 minutes before the absorbance of the solutions was read at 405 nm (Synergy Neo2, Biotek). The colorimetric change in the solutions was converted to p-nitrophenol concentration using a calibration curve of 0-0.8 μmol mL^−1 4-nitrophenol solution (Millipore Sigma). The QuantiFluor dsDNA System (Promega) was used for dsDNA quantification. The ALP activity in each well was normalized to the dsDNA content to account for variability in cell number between samples.
After 72 hours, cells were lysed and their ALP activity was quantified by a colorimetric change caused by the ALP-induced catalysis of p-nitro phenyl phosphate to p-nitrophenol.^88 ALP activity was normalized to the total amount of double-stranded DNA present in each cell culture.

As usually defined, the Kd is the equilibrium constant for the complex coming apart. Take “BMP-2: Recombinant human BMP-2 (Medtronic, R&D Systems)”: the Kd in test [1] was about 0.1 µM. Besides, the “normalized ALP activity” value in test [2] is 37.9±12.5 nmol pNPP μg^−1 dsDNA min^−1.
